Sequences of proteins named here, by UniProt entry; tags and fusion partners are left off. A change or cut given only in a name is not applied to a line headed by its entry.
UniProt Q9UNQ0: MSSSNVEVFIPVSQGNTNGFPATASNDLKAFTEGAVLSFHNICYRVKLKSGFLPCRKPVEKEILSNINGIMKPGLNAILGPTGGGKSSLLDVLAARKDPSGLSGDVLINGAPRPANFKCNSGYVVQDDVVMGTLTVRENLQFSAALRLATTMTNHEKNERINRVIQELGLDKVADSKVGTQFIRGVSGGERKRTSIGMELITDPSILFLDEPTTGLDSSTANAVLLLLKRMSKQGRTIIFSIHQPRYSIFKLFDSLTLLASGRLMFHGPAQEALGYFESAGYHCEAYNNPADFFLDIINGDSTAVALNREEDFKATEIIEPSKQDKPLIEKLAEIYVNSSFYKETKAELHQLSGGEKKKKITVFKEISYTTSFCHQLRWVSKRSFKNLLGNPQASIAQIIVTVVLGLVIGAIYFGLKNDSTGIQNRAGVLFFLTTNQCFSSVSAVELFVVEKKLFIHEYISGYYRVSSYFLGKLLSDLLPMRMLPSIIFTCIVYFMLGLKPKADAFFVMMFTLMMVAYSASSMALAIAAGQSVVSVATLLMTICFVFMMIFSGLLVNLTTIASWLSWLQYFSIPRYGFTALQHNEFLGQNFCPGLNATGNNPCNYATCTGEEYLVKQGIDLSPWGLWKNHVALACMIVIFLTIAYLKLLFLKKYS

According to PMC8175309, “Translational CNS Steady-State Drug Disposition Model in Rats, Monkeys, and Humans for Quantitative Prediction of Brain-to-Plasma and Cerebrospinal Fluid-to-Plasma Unbound Concentration Ratios” (The AAPS Journal, 2021):

Legend:
[1] = in vivo; cited from earlier work
[2] = in vivo; cited from earlier work; remark: listed apart in the source
BCRP = BCRP (Homo sapiens, UniProt Q9UNQ0); assay: Transcellular transport across MDCK-BCRP cell monolayers (efflux ratio); conditions: dog, pH 7.4

SMILES: Cc1cc2c(s1)Nc1ccccc1N=C2N1CCN(C)CC1 [Olanzapine]
- Kp,uu,brain Rat [1]: 2.450
- Kp,uu,brain Human [2]: 0.15
- efflux ratio at 1 h, 1 μM (BCRP): 0.8
